{"source": "patent US11931424B2", "about": "“Combination MCL-1 inhibitors with anti-body drug conjugates” (Gilead Sciences, Inc., priority 2021, dated 2024)", "test_system": "panel of breast cancer cell lines", "experiment": "Compound A with targeted agents and chemotherapies, 72-hour in vitro proliferation assays", "format": "cell-based", "conditions": "72-hour proliferation", "key": {"[1]": {"conditions": "CAL-120 cell line, compound A × partner"}}, "note": "Where a name gives a salt, the structure may show the parent alone."}
{"smiles": "CC1(C)CCC(c2ccc(Cl)cc2)=C(CN2CCN(c3ccc(C(=O)NS(=O)(=O)c4ccc(N[C@H](CCN5CCOCC5)CSc5ccccc5)c(S(=O)(=O)C(F)(F)F)c4)cc3)CC2)C1", "note": "[ABT-263]", "values": [{"measurement": "HSA volume", "setting": "HCC38, compound A × partner", "value": 22.24}]}
{"smiles": "CC(=O)O[C@@]12CO[C@@H]1C[C@H](O)[C@@]1(C)C(=O)[C@H](O)C3=C(C)[C@@H](OC(=O)[C@H](O)[C@@H](NC(=O)OC(C)(C)C)c4ccccc4)C[C@@](O)([C@@H](OC(=O)c4ccccc4)[C@H]21)C3(C)C", "note": "[Docetaxel]", "values": [{"measurement": "Synergy Score", "setting": "MDA-MB-436 cells, Compound A × partner agent", "value": 1.52}]}
{"smiles": "COc1cccc2c1C(=O)c1c(O)c3c(c(O)c1C2=O)C[C@@](O)(C(=O)CO)C[C@@H]3O[C@H]1C[C@H](N)[C@H](O)[C@H](C)O1", "note": "[Doxorubicin Hcl]", "values": [{"measurement": "Best CI", "setting": "[1]", "value": 0.64}, {"measurement": "Synergy Score", "setting": "[1]", "value": 2.50}, {"measurement": "Best CI", "setting": "HCC2218, compound A × partner", "value": 0.35}, {"measurement": "Synergy Score", "setting": "HCC2218, compound A × partner", "value": 8.60}, {"measurement": "Best CI", "setting": "HDQ-P1, compound A × partner", "value": 1.48}]}
